Source: patent publication US10954214B2 (Janssen Pharmaceutica NV, priority 2016, dated 2021)

How the values were obtained:
OCI-Ly3 cells = test: 4-day proliferation assay, OCI-Ly3; assay type: cell-based; conditions: Homo sapiens, 96 h, 4 days incubation, CellTiterGLO, read-out: Anti-proliferation: OCI-LY-3 IC50
Experimental: (§1) To assess anti-proliferative effects, MALT1 inhibitor test compounds were tested in 4-day proliferation assays using three different DLBCL cell lines.
(§2) OCI-Ly3 cells were propagated in RPMI-1640 (Sigma Aldrich) supplemented with 10% fetal bovine serum (HyClone), 2 mM L-glutamine (Sigma Aldrich) and 1% PenStrep (Sigma Aldrich). TMD8 cells were propagated in RPMI-1640 (Sigma Aldrich) supplemented with 10% fetal bovine serum (HyClone), 1 mM sodium pyruvate (Invitrogen), 2 mM L-glutamine (Sigma Aldrich) and 1% PenStrep (Sigma Aldrich). Cells should be kept between 0.5-2.5 million cells per mL during culturing and cells should be supplemented every 2-3 days with fresh 50 μM beta-mercaptoenthanol. No beta-mercaptoethanol is used during the proliferation assay. OCI-Ly7 cells were propagated in IMDM (ThermoFisher) supplemented with 10% fetal bovine serum (HyClone), 2 mM L-glutamine (Sigma Aldrich) and 50 μg/mL Gentamycin. […]
(§3) To assess anti-proliferative effects, 400 nL of test compounds were spotted per well of 96-well plates (Costar, catalogue number 3904). […] After 4 days of incubation 50 μL CellTiterGLO reagent (Promega) were added to each well and luminescence was measured on the Envision after 10 min of incubation at room temperature.
(§4) IC50 values were calculated using the following formula (Z prime should be >0.5): […]

TMD8 cells = test: 4-day proliferation assay, TMD8; assay type: cell-based; conditions: Homo sapiens, 96 h, 4 days incubation, CellTiterGLO, read-out: Anti-proliferation: TMD-8 IC50
Experimental: as §1, §2, §3, §4

- IC50 (OCI-Ly3 cells): 567 nM
SMILES: O=C(Nc1ccnc(C(F)(F)F)c1)c1cnn(-c2cccc3c(=O)[nH]ccc23)c1C(F)(F)F [Cpd 158, 1-(1-oxo-1,2-dihydroisoquinolin-5-yl)-5-(trifluoromethyl)-N-(2-(trifluoromethyl)pyridin-4-yl)-1H-pyrazole-4-carboxamide]
- IC50 (TMD8 cells): 4570 nM
